In general, inhibition refers to how much of the control response was suppressed.

Chains of the proteins cited; added tags and fusions are not shown. Lines headed by an entry give the natural chain unless they say otherwise; changes in a name come on top.
UniProt P53041: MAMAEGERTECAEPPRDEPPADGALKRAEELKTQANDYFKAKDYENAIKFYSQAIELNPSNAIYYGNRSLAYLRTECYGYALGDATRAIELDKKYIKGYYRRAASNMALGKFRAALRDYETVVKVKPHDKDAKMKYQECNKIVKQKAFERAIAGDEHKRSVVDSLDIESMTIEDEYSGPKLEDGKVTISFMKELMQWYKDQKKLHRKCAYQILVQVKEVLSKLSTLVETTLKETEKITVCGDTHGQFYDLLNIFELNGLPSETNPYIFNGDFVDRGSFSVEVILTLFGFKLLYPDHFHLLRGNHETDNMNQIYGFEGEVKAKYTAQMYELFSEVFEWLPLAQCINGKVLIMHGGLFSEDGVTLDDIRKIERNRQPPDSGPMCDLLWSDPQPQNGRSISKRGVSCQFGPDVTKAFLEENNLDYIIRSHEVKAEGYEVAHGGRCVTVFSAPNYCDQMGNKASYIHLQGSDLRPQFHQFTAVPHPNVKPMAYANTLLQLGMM

Inhibition data for one molecule are collected here from PubChem BioAssay AID2331 (The Scripps Research Institute Molecular Screening Center, 2010).

This assay deals with Serine/threonine-protein phosphatase 5 (Homo sapiens) (UniProt P53041). Kind of assay: PP5 phosphatase inhibitors, confirmation, biochemical, fluorescence, human (AID 2331). The conditions noted are these: Purified PP5, fluorogenic phosphatase substrate, at 6.7 µM, stronger effect = higher value.

Structures are written as SMILES. This is a selection; strong and weak results do not stand in their true shares. Calls of active or inactive are those of the source. Rule as the data show it: active = inhibition above about 9.5%; inactive = the rest.

Regarding `CN(C(=O)Cc1ccc(Cl)c(Cl)c1)[C@H]1CCCC[C@H]1N1CCCC1`, the inhibition was inactive: 6.5%.
